Values of other authors as cited in paper PMC6397219, “Rapid one-step ^18F-radiolabeling of biomolecules in aqueous media by organophosphine fluoride acceptors” (Nature Communications, 2019).

Details: cited from earlier work

Question: For Human serum albumin, which plasma half-life is on record?
Answer: 16 to 18 h
